Data reported in ChEMBL document CHEMBL1149262, “Monoamine transporter binding, locomotor activity, and drug discrimination properties of 3-(4-substituted-phenyl)tropane-2-carboxylic acid methyl ester isomers” (J Med Chem, 2004).

Chains of the proteins cited; added tags and fusions are not shown.
UniProt P23975, whole entry: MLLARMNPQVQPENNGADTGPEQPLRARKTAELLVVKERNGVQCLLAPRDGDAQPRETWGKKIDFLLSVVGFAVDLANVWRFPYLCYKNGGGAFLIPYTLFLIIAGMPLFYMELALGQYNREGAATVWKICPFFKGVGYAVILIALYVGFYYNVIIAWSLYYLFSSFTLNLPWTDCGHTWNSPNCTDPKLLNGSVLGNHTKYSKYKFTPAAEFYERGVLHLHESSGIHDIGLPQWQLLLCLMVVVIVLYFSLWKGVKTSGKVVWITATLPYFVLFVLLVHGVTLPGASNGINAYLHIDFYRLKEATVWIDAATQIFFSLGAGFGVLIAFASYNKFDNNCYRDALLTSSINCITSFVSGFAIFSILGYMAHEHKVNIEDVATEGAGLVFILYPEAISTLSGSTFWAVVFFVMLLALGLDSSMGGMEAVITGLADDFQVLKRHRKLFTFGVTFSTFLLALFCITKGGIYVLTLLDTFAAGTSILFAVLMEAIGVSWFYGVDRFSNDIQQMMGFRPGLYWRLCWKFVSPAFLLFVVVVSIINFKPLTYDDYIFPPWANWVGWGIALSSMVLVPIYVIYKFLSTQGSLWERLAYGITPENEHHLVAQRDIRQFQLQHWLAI
UniProt P31645, whole entry: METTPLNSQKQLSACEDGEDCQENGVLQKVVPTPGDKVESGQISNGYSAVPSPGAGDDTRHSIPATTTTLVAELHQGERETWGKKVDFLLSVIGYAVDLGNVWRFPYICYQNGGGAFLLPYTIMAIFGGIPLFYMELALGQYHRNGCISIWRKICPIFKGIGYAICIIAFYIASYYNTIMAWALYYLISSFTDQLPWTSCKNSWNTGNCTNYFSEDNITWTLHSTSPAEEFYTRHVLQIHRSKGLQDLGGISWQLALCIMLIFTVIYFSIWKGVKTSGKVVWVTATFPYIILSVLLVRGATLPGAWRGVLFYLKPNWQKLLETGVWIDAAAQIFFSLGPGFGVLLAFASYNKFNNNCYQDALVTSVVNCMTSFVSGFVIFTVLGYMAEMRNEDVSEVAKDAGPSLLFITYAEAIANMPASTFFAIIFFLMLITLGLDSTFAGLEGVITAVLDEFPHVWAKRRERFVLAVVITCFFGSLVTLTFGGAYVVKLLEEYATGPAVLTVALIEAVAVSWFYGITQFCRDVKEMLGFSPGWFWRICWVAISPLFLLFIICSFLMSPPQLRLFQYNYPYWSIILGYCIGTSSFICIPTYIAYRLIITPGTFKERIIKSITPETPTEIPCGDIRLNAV
UniProt Q01959, whole entry: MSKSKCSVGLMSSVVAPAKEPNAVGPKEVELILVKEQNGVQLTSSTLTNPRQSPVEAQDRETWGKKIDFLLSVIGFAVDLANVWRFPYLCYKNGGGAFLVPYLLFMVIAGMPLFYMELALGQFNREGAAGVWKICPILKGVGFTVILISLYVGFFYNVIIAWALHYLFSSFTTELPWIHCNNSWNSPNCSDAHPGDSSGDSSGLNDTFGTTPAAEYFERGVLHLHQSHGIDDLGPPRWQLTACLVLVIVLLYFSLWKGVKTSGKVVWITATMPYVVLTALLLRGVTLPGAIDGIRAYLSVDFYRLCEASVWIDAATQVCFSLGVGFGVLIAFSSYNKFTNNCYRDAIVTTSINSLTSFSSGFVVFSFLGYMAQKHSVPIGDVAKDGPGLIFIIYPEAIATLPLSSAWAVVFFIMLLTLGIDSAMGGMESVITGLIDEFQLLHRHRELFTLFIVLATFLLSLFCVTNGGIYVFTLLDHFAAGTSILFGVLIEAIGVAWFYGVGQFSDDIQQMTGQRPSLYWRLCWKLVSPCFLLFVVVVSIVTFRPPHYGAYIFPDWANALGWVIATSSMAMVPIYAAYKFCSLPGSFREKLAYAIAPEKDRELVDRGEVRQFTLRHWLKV

Tests used:
[1] = tested on: Mus musculus; experiment: Locomotor activity in ip dosed CD1 mouse after 1 hr relative to cocaine; type: functional
[2] = target: Sodium-dependent noradrenaline transporter (Homo sapiens, UniProt P23975); experiment: Displacement of [3H]nisoxetine from NET
[3] = target: Sodium-dependent serotonin transporter (Homo sapiens, UniProt P31645)
[4] = target: Sodium-dependent dopamine transporter (Homo sapiens, UniProt Q01959); experiment: Displacement of [3H]WIN-35428 from DAT

SMILES | Ratio [1] | IC50 [2] | Ki [2] | IC50 [3] | Ki [3] | IC50 [4]
COC(=O)[C@H]1C2CCC(C[C@@H]1c1ccccc1)N2C (some centres not stated) | 0.4 |  |  |  |  | 
COC(=O)[C@H]1C2CCC(C[C@@H]1c1ccc(Cl)cc1)N2C (some centres not stated) | 0.7 | 444 nM | 222 nM | 1450 nM | 356 nM | 
COC(=O)[C@H]1[C@H]2CCC(C[C@H]1c1ccc(Cl)cc1)N2C | 0.2 | 559 nM | 280 nM | 1800 nM | 441 nM | 11.7 nM
COC(=O)[C@@H]1C2CCC(C[C@H]1c1ccc(Cl)cc1)N2C (some centres not stated) | 2.6 | 5.14 nM | 3.1 nM | 53 nM | 4.8 nM | 
COC(=O)[C@@H]1C2CCC(C[C@H]1c1ccccc1)N2C (some centres not stated) | 1 |  |  |  |  | 
COC(=O)C1C2CC[C@H](C[C@@H]1c1ccc(Cl)cc1)N2C (some centres not stated) |  |  |  | 44.5 nM | 4 nM | 
COC(=O)[C@@H]1C2CC[C@H](C[C@@H]1c1ccccc1)N2C | 2.7 |  |  |  | 178 nM | 
